{"sequences": {"note": "The chains behind the UniProt entries cited, without tags or fusion partners.", "UniProt Q9BXA5, whole entry": "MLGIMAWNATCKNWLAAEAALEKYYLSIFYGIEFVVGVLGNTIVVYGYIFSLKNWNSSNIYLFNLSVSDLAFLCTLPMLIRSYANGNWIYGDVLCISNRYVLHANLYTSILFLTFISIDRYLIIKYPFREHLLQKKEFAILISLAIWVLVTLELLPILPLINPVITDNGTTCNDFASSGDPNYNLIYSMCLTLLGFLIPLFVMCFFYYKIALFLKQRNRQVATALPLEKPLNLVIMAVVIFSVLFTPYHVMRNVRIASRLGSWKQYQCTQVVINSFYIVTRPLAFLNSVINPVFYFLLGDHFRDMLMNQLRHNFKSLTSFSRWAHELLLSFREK", "UniProt Q99MT6, whole entry": "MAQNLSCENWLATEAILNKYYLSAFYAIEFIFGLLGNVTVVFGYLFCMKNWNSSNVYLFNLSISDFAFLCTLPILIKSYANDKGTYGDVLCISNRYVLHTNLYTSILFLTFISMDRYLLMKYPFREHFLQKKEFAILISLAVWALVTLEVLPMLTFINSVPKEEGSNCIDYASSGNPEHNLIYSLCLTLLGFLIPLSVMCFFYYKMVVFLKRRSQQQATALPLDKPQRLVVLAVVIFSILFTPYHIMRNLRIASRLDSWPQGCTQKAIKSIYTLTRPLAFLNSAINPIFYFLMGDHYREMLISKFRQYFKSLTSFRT"}, "source": "paper PMC6030209", "about": "“Structure-Activity Investigations and Optimisations of Non-metabolite Agonists for the Succinate Receptor 1” (Scientific Reports, 2018)", "key": {"[1]": {"biological_target": "hSUCNR1 (Homo sapiens, UniProt Q9BXA5)", "assay": "IP3 turnover assay in hSUCNR1 transfected HEK-293 cells", "format": "cell-based"}, "[2]": {"conditions": "2 hours, 37 °C"}, "[3]": {"biological_target": "mSUCNR1 (Mus musculus, UniProt Q99MT6)", "assay": "IP3 turnover assay in mSUCNR1 transfected HEK-293 cells", "format": "cell-based"}, "[4]": {"conditions": "after 70 hours in 10 mM PBS7.4, 37 °C"}, "[5]": {"tested_on": "SUCNR1", "assay": "Active/inactive grouping by EC50 threshold (ALiBERO training set, Table S1)", "format": "cell-based", "conditions": "active (1) / inactive (0), EC50 threshold of 10 µM"}, "[6]": {"conditions": "1 hour, 1 μM, 0.5 mg/mL microsomes"}, "[7]": {"conditions": "10 mM PBS7.4, 25 °C, 24 h"}, "[8]": {"conditions": "dose-response curves of induction of IP3 turnover in SUCNR1 transfected HEK cells (N = 3)"}, "[9]": {"conditions": "efficacy relative to succinate (100%), IP3 turnover, HEK cells (N = 3)"}}, "data": [{"smiles": "O=C(O)C[C@H](NC(=O)c1ccc(-c2ccc(F)cc2)o1)C(=O)O", "values": [{"measurement": "hSUCNR1 pEC50", "setting": "[1]; [8]", "value": "5.75 ± 0.08"}, {"measurement": "type of agonism", "setting": "[1]; dose-response curves on hSUCNR1 and mSUCNR1 compared with succinate", "value": "partial agonists"}, {"measurement": "hSUCNR1 efficacy, %", "setting": "[1]; [9]", "value": "72.8 ± 2.6", "unit": "%"}, {"measurement": "stability in FaSSGF", "setting": "[2]; simulated gastrointestinal fluid FaSSGF", "value": "stable"}, {"measurement": "stability in FaSSIF", "setting": "[2]; simulated gastrointestinal fluid FaSSIF", "value": "stable"}, {"measurement": "stability in FeSSIF", "setting": "[2]; simulated gastrointestinal fluid FeSSIF", "value": "stable"}, {"measurement": "mSUCNR1 pEC50", "setting": "[3]; [8]", "value": "6.46 ± 0.06"}, {"measurement": "mSUCNR1 efficacy, %", "setting": "[3]; [9]", "value": "79.3 ± 1.6", "unit": "%"}, {"measurement": "chemical stability", "setting": "[4]", "value": "> 98", "unit": "%"}, {"measurement": "Active", "setting": "[5]", "value": "1 (active (1))"}, {"measurement": "stability in mouse liver microsomes", "setting": "[6]", "value": "stable"}, {"measurement": "kinetic solubility", "setting": "[7]", "value": "> 200", "unit": "µM"}]}]}
